Measured values taken from publication PMC7821949 (Biomolecules, 2020).
pIC50: −log10 of the molar value.

Amino acid sequences for entries named in this document (tags omitted). Residues count along the entry.
UniProt P02710, 25-461 limits assumed: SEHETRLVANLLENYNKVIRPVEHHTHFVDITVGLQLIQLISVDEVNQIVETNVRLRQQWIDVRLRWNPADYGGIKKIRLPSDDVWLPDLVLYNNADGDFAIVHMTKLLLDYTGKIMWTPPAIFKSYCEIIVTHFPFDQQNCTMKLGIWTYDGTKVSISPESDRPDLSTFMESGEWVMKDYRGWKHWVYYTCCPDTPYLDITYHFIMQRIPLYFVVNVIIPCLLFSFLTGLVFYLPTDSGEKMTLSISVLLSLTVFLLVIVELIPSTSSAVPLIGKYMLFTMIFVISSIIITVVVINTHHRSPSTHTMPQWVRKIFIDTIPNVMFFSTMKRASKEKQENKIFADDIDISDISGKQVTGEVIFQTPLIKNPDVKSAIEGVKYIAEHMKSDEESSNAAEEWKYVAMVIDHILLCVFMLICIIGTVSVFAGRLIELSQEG
UniProt P02712, 25-493 partner limits assumed: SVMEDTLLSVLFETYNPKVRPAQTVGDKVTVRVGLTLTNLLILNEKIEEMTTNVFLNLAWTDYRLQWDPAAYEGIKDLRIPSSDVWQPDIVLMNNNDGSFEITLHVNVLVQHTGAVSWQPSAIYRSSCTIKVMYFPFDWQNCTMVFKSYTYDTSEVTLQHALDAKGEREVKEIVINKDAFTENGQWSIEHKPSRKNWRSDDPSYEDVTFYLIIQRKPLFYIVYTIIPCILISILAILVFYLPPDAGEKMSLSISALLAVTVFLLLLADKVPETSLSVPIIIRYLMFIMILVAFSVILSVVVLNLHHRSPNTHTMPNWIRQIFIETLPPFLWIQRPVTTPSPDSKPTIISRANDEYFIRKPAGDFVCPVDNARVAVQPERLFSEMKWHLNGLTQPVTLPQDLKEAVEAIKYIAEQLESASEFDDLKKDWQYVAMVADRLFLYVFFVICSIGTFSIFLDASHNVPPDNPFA
UniProt P02714, 18-506 limits assumed: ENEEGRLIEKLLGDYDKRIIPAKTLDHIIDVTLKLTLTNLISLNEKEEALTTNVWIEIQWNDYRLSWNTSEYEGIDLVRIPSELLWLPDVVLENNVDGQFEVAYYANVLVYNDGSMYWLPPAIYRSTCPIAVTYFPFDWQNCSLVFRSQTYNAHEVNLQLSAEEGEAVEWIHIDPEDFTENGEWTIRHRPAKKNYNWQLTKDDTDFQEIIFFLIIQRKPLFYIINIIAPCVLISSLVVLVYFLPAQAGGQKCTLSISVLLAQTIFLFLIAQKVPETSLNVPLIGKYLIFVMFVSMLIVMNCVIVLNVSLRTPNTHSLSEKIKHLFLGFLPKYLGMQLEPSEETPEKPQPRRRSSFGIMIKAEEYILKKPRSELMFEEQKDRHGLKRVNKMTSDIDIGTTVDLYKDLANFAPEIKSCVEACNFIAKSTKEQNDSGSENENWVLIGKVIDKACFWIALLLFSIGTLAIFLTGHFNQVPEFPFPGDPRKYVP
UniProt P02718, 22-522 limits assumed: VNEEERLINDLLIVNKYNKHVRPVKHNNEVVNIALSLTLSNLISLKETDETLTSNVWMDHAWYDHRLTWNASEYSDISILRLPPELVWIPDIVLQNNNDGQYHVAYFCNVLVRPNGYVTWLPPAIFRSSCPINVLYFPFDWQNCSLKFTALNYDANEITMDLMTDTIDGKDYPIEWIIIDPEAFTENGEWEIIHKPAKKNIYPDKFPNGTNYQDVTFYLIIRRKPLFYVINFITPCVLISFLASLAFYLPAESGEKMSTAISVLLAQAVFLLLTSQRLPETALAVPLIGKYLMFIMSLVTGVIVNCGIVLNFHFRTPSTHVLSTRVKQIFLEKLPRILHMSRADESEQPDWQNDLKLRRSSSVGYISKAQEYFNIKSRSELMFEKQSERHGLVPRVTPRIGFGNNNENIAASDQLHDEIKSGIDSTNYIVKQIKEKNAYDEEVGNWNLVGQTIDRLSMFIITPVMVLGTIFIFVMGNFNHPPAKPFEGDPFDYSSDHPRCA

molecular target: muscle-type nAChR from T. californica ray electric organ (Tetronarce californica, UniProt P02710+P02712+P02714+P02718); experiment: Competitive radioligand assay with 125I-α-Bgt on Torpedo membranes; details: read-out: IC50, inhibition of 125I-α-Bgt binding to T. californica nAChR; Torpedo electric organ membranes (0.6 nM α-Bgt binding sites); 90 min with peptide, then 5 min with 0.5 nM 125I-α-Bgt; 20 mM Tris-HCl pH 8.0, 1 mg/mL BSA; one-site fit; mean ± SEM, two measurements per concentration in two independent experiments

In order of rising pIC50:
1. CSCC[C@H](NC(=O)[C@H](CCCNC(=N)N)NC(=O)[C@@H](NC(=O)[C@@H]1CCCN1C(=O)[C@@H](NC(=O)[C@H](Cc1ccc(O)cc1)NC(=O)[C@H](Cc1ccc(O)cc1)NC(=O)[C@@H](NC(=O)[C@H](CCCNC(=N)N)NC(=O)[C@@H](NC(=O)[C@@H](N)[C@@H](C)O)[C@@H](C)O)[C@@H](C)O)[C@@H](C)O)[C@@H](C)O)C(=O)N[C@@H](CCCCN)C(=O)N[C@H](C(=O)N[C@@H](CO)C(=O)N[C@@H](CCCCN)C(=O)O)C(C)C  5.10
2. CSCC[C@@H]1NC(=O)[C@H](CCCNC(=N)N)NC(=O)[C@H]([C@@H](C)O)NC(=O)[C@@H]2CCCN2C(=O)[C@H]([C@@H](C)O)NC(=O)[C@H](Cc2ccc(O)cc2)NC(=O)[C@H](Cc2ccc(O)cc2)NC(=O)[C@H]([C@@H](C)O)NC(=O)[C@H](CCCNC(=N)N)NC(=O)[C@H]([C@@H](C)O)NC(=O)[C@H]([C@@H](C)O)NC(=O)[C@@H](N)CSSC[C@@H](C(=O)O)NC(=O)[C@H](CCCCN)NC(=O)[C@H](CO)NC(=O)[C@H](C(C)C)NC(=O)[C@H](CCCCN)NC1=O  5.22
3. CSCC[C@H](NC(=O)[C@H](CCCNC(=N)N)NC(=O)[C@@H](NC(=O)[C@@H]1CCCN1C(=O)[C@@H](NC(=O)[C@H](Cc1ccc(O)cc1)NC(=O)[C@H](Cc1ccc(O)cc1)NC(=O)[C@@H](NC(=O)[C@H](CCCNC(=N)N)NC(=O)[C@@H](NC(=O)[C@@H](NC(=O)[C@@H](N)CS)[C@@H](C)O)[C@@H](C)O)[C@@H](C)O)[C@@H](C)O)[C@@H](C)O)C(=O)N[C@@H](CCCCN)C(=O)N[C@H](C(=O)N[C@@H](CO)C(=O)N[C@@H](CCCCN)C(=O)N[C@@H](CS)C(=O)O)C(C)C  5.96
